Assay results as given in PubChem BioAssay AID1817 (Sanford-Burnham Center for Chemical Genomics, 2009).
Where “and” joins values, the source holds several entries; their conditions need not be identical. Identical values can stand only once. This is a selection; strong and weak results do not stand in their true shares. Measured potencies and affinities stand elsewhere. Calls of active or inactive are those of the source.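 Rule for the calls: active = displacement of at least 50% at 20 µM, with a fluorescence ratio check between 0.3 and a set limit; inactive = the rest.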

The chains behind the UniProt entries cited, without tags or fusion partners. Where a name states a change or a piece, a line headed by the entry shows the natural chain unless it says otherwise.
UniProt Q8IUQ4: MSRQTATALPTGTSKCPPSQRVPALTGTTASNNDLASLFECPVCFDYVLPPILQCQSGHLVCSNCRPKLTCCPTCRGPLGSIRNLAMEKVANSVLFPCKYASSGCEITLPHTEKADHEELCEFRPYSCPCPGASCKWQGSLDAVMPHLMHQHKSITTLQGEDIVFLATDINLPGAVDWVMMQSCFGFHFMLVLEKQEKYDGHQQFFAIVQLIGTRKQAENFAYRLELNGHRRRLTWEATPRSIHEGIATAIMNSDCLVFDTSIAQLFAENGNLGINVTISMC

target: E3 ubiquitin-protein ligase SIAH1 (Homo sapiens) (UniProt Q8IUQ4); assay: blockers of Siah-1 interaction with plectin peptide – biochemical, fluorescence polarization, rhodamine-plectin, uHTS, primary screen (AID 1817); settings: Siah-1 / rhodamine-plectin peptide fluorescence polarization; at 20 µM; active compounds read high;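 note: plate controls were Siah plus tracer with DMSO for no effect and tracer alone without Siah for full effect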

| SMILES | displacement |
| --- | --- |
| CCNC(=S)/N=C(\N)N[N+](=O)[O-] | inactive: -0.2% |
| O=C(NC1CCS(=O)(=O)C1)NP(=S)(Oc1ccccc1)Oc1ccccc1 (configuration not stated) | inactive: 3% |
| c1ccc(-c2nn[nH]n2)c(-c2nn[nH]n2)c1 | inactive: 6.5% |
| Cc1ccc(NP(=O)(Oc2cccc(C)c2)Oc2cccc(C)c2)nc1 | inactive: -2.7% |
| CCOC(=O)NC(Sc1ccccc1)C(Cl)(Cl)Cl (configuration not stated) | inactive: -1% |
| COC(=O)c1cc2c(s1)N=C(c1ccccc1)N(C)P2(=O)N1CCOCC1 (configuration not stated) | inactive: 0.8% |
| CC(=O)NC(SC(=S)N(CC(C)C)CC(C)C)C(Cl)(Cl)Cl (configuration not stated) | inactive: 8.1% |
| Cc1ccc(OP(=O)(Nc2ccccn2)Oc2ccc(C)cc2)cc1 | inactive: -4.4% |
| O=C(OC1CN2CCC1CC2)c1ccccc1 (configuration not stated) | inactive: -1.6% |
| CCC(=O)N1C2C3N(C(=O)CC)C1C1N(C(=O)CC)C(C(N1C(=O)CC)N3C(=O)CC)N2C(=O)CC | inactive: -1.6% |
| Cc1ccccc1OP(=O)(Nc1ccccn1)Oc1ccccc1C | inactive: -5.7% |
| CN(C)C(=O)Oc1noc2ccccc12 | inactive: 5.2% |
| O=c1c2cc([N+](=O)[O-])ccc2[nH]c2c([N+](=O)[O-])cc([N+](=O)[O-])cc12 | inactive: 59.5% |
| O=P1(Nc2nc3ccc(Cl)cc3s2)COc2ccccc2O1 (configuration not stated) | inactive: 3.2% |
| CCOc1ccc(C2=NCC(CBr)S2)cc1 (configuration not stated) | inactive: -2.3% |
| CC(C)(C)C(=O)NC(Sc1ccccc1)C(Cl)(Cl)Cl (configuration not stated) | inactive: -2.5% |
| CC(=O)c1ccc(N2CC2c2ccncc2)cc1 (configuration not stated) | inactive: -1.4% |
| C[C@@H]1C=CCP(=O)(Oc2ccccc2)O1 (some centres not stated) | inactive: 2.1% |
| C[C@H]1OP(=O)(Oc2ccccc2)C[C@@H]2O[C@@H]21 (some centres not stated) | inactive: 5.5% |
| CC(=O)Nc1ccc([As](=O)(O)O)c(O)c1 | inactive: -1% |
| CC(=O)Nc1ccc(Oc2c([N+](=O)[O-])cc([N+](=O)[O-])cc2[N+](=O)[O-])cc1 | inactive: 4.4% |
| CC(C)C(=O)NC(Sc1ccccc1)C(Cl)(Cl)Cl (configuration not stated) | inactive: 1.5% |
| O=P(Nc1nccs1)(c1ccccc1)c1ccccc1 | inactive: 3.8% |
| c1nnnn1CCn1cnnn1 | inactive: 3.5% |
| O=P(Nc1ccccn1)(c1ccc(Br)cc1)c1ccc(Br)cc1 | inactive: -4% |
| CN(C)C1(CNC(=O)c2ccc(Cl)c(S(N)(=O)=O)c2)CCCCC1 | inactive: -3.5% |

| SMILES | displacement |
| --- | --- |
| O=P(Nc1nc2ccccc2s1)(c1ccccc1)c1ccccc1 | inactive: 6.6% |
| C[C@H]1OP(=O)(Oc2ccccc2)[C@H](O)[C@H](O)[C@H]1N=[N+]=[N-] (some centres not stated) | inactive: 0.6% |
| O=[N+]([O-])c1ccc(O)c(/C=N/Nc2ccc([N+](=O)[O-])cc2[N+](=O)[O-])c1 | inactive: 47% |
| CC(=O)NC(SC(=S)N(C)C)C(Cl)(Cl)Cl (configuration not stated) | inactive: 1% |
| O=[N+]([O-])c1ncn(CCn2cnc([N+](=O)[O-])n2)n1 | inactive: 14% |
| O=[As](O)(c1ccccc1)c1ccc(O)cc1 | inactive: 8.6% |
| Nc1ccc([As](=O)(O)c2ccc([N+](=O)[O-])cc2)cc1 | inactive: -1.9% |
| C(Cc1nn[nH]n1)Cc1nn[nH]n1 | inactive: 6.4% |
| O=C(OC1CN2CCC1CC2)c1cccc(Cl)c1 (configuration not stated) | inactive: -4% |
| O=C(Nc1cc([As](=O)(O)O)ccc1O)c1ccccc1 | inactive: -0.45% |
| CC(C)(C)C(=O)NC(Sc1ccncn1)C(Cl)(Cl)Cl (configuration not stated) | inactive: 0.4% |
| O=[N+]([O-])c1ncn(CCn2ncnc2[N+](=O)[O-])n1 | inactive: -2% |
| O=[N+]([O-])c1cccc(NC2=NCC(CBr)S2)c1 (configuration not stated) | inactive: -5.5% |
| O=C(O)CNc1ccc([As](=O)(O)O)cc1 | inactive: 9.05% |
| COc1ccc(C2=NCC(CBr)S2)cc1 (configuration not stated) | inactive: 1.6% |
| O=[N+]([O-])c1cccc2n[nH]nc12 | inactive: 3.3% |
| CC(=O)N1C2C3N(C(C)=O)C1C1N(C(C)=O)C(C(N1C(C)=O)N3C(C)=O)N2C(C)=O | inactive: 4.4% |
| Cc1ccc(NP(=O)(Oc2ccccc2)Oc2ccccc2)nc1 | inactive: -1.9% |
| CCc1nc2c(n1)c1c(non1O)c1c2no[n+]1[O-] | inactive: 0.4% |
| O=[N+]([O-])c1cc([N+](=O)[O-])c(CCNc2ccccc2)c([N+](=O)[O-])c1 | inactive: 1.3% |
| Nc1ccc([As](=O)(O)c2ccc(N)cc2)cc1 | inactive: 1.7% |
| C[N+]1=C2C=CC=CC=C2SC12C([N+](=O)[O-])=CC([N+](=O)[O-])=C[C-]2[N+](=O)[O-] (configuration not stated) | inactive: 34.4% |
| CCN(/C(=N/P(=O)(N1CCOCC1)N1CCOCC1)N1CCOCC1)c1ccc(OC)cc1 | inactive: 0.1% |
| CC(C)=N/N=C(\N)N[N+](=O)[O-] | inactive: 6.7% |
| CN(C)C(=O)OCCc1n(C)cc[n+]1C | inactive: -1.7% |
| CC1CCN(C(=O)Oc2c(Cl)cc(Cl)c3cccnc23)CC1 | inactive: -5.4% |

| SMILES | displacement |
| --- | --- |
| NC(=O)c1cc([N+](=O)[O-])cc([N+](=O)[O-])c1N | inactive: -5% |
| Cc1ccc(N/C(=N/P(=O)(N2CCOCC2)N2CCOCC2)N2CCOCC2)cc1 | inactive: 6.1% |
| COc1ccccc1OP(=O)(Nc1ccc(C)cn1)Oc1ccccc1OC | inactive: 6.6% |
| Cc1ccc(OP(=O)(Nc2nccs2)Oc2ccc(C)cc2)cc1 | inactive: 11.6% |
| Clc1ccc(Cl)c(NC2=NCC(CBr)S2)c1 (configuration not stated) | inactive: -5% |
| CN1CCCC(OC(=O)C(c2ccccc2)c2ccccc2)C1 (configuration not stated) | inactive: -5.6% |
| CC(C)CC(=O)NC(Sc1ccc(Cl)cc1)C(Cl)(Cl)Cl (configuration not stated) | inactive: 4.9% |
| Nc1cc(N)c2nonc2c1[N+](=O)[O-] | inactive: -3.8% |
| Oc1ccccc1CNc1ccccn1 | inactive: -5.2% |
| Cc1c2non([O-])c-2c(C)[n+](=O)[n+]1[O-] | inactive: -1.2% |
| O=C(NC(Sc1ccncn1)C(Cl)(Cl)Cl)c1ccccc1 (configuration not stated) | inactive: 15.4% |
| O=C(O)c1ccccc1[As](=O)(O)O | inactive: -3.75% |
| CC(=O)Nc1ccc([As](=O)(O)O)cc1 | inactive: 2.6% |
| O=P(Nc1nc2ccc(Cl)cc2s1)(c1ccccc1)c1ccccc1 | inactive: 3.7% |
| CCOP(=O)(Nc1ccccc1)OCC | inactive: -2% and inactive: 3.7% |
| Cc1cc(SC(NC(=O)c2ccc(F)cc2)C(Cl)(Cl)Cl)ncn1 (configuration not stated) | inactive: 3% |
| Cc1ccc(NP(=O)(Oc2ccccc2F)Oc2ccccc2F)nc1 | inactive: -0.1% |
| O=[N+]([O-])c1cc([N+](=O)[O-])c(CCN2CCOCC2)c([N+](=O)[O-])c1 | inactive: -4.3% |
| CCN(N=Nc1nonc1N)c1nonc1N | inactive: -1.8% |
| Nc1cccc2ccc([As](=O)(O)O)cc12 | inactive: 45.8% |
| C[As](=O)(O)c1cccc(C(=O)O)c1 | inactive: -0.55% |
| O=[As](O)(c1ccc(O)cc1)c1ccccc1O | inactive: 1.1% |
| Cc1ccc2nc3c(c(C)c2c1)CC(C(Cl)Cl)S3 (configuration not stated) | inactive: 0.4% |
| Cc1ccc(OP(=O)(Nc2ccc([N+](=O)[O-])cn2)Oc2ccc(C)cc2)cc1 | inactive: -0.9% |
| CC(C)c1ccc(OP(=O)(Nc2ccccn2)Oc2ccccc2F)cc1 (configuration not stated) | inactive: 4.3% |
| ClCCSc1nnc(-c2cccnc2)o1 | inactive: -5.7% |

| SMILES | displacement |
| --- | --- |
| CCN(CC)C(=S)SC(NC=O)C(Cl)(Cl)Cl (configuration not stated) | inactive: 3.9% |
| CC(C)NC(=O)NP(=O)(Oc1ccccc1)Oc1ccccc1 | inactive: -3.6% |
| O=[N+]([O-])c1cc([N+](=O)[O-])c(-c2ccn[nH]2)s1 | inactive: 24.1% |
| O=C(OC1CN2CCC1CC2)C12CC3CC(CC(C3)C1)C2 (configuration not stated) | inactive: -0.4% |
| Cc1cc(=O)[nH]c(N[N+](=O)[O-])n1 | inactive: 4.6% |
| Cc1c2c(nc3ccccc13)SC(C(Cl)Cl)C2 (configuration not stated) | inactive: -1.9% |
| COc1ccc2nc(NP(=O)(c3ccccc3)c3ccccc3)sc2c1 | inactive: 3% |
| COc1cc(I)ccc1[As](=O)(O)O | inactive: -3.5% |
| COc1ccc(N/C(=N/P(=O)(N2CCOCC2)N2CCOCC2)N2CCOCC2)cc1 | inactive: -1.2% |
| COP1(=S)c2c(C)nn(CCC#N)c2N=C(c2ccc(F)cc2)N1C (configuration not stated) | inactive: -1.1% |
| O=C(COc1ccccc1)OC1CN2CCC1CC2 (configuration not stated) | inactive: -0.4% |
| O=C(Nc1ccncc1[N+](=O)[O-])c1ccc([N+](=O)[O-])cc1[N+](=O)[O-] | inactive: 0.5% |
| CCOC(=O)c1ccc(NC(=O)C(C)(CCl)SC)cc1 (configuration not stated) | inactive: 10% |
| O=C(OC1CN2CCC1CC2)c1cccc([N+](=O)[O-])c1 (configuration not stated) | inactive: 13.5% |
| CCC(C)N(CC(C)C)C(=S)SC(NC(C)=O)C(Cl)(Cl)Cl (configuration not stated) | inactive: -5.6% |
| CCOC(=O)Nc1ccc([As](=O)(O)O)c(O)c1 | inactive: -1.2% |
| CCCCOc1ccc(C(=O)NCC2(N3CCCCC3)CCCCC2)cc1OC | inactive: -4.1% |
| Cc1cc(SC(NC(=O)c2ccccc2)C(Cl)(Cl)Cl)nc(C(C)C)n1 (configuration not stated) | inactive: -7.8% |
| CCOC(=O)Nc1cccc([As](=O)(O)O)c1 | inactive: 10.4% |
| O=[N+]([O-])c1ccc(Nc2ccc(Oc3ccc([N+](=O)[O-])cc3[N+](=O)[O-])cc2)c([N+](=O)[O-])c1 | inactive: 7.3% |
| O=P(Nc1ccccn1)(c1cccc2ccccc12)c1cccc2ccccc12 | inactive: -0.2% |
| Cc1cc(SC(NC=O)C(Cl)(Cl)Cl)ncn1 (configuration not stated) | inactive: -3% |
| Cc1nn(-c2ccccc2)c2c1P(=O)(N1CCOCC1)N(C)C(c1ccccc1)=N2 (configuration not stated) | inactive: 1.7% |
| CC1CCC(C(C)C)C(OP(=O)(Nc2ccccn2)c2ccccc2)C1 (configuration not stated) | inactive: 0.7% |
